Laboratory results taken from US6015808A, “Synthesis of pharmaceutical compositions with lactams and β-lactams/oxo thia azabicyclo compounds” (priority 1995, dated 2000).
Entries after “also recorded” stand apart in the source; their conditions may differ.

Legend:
oral absorption = format: in vivo

Substance: hamycin
- oral absorption (oral absorption): poorly absorbed orally
- solubility in methanol, alcohol, other solvents (methanol, alcohols, ethyl acetate, other solvents): soluble in alcohol
- solubility in water (water): insoluble in water; also recorded: not water soluble
